# Assay results from patent publication US8829029B2, “Dual modulators of 5HT2A and D3 receptors” (Hoffmann-La Roche Inc., priority 2008, dated 2014).
# The chains behind the UniProt entries cited, without tags or fusion partners.
# UniProt P35462, whole entry: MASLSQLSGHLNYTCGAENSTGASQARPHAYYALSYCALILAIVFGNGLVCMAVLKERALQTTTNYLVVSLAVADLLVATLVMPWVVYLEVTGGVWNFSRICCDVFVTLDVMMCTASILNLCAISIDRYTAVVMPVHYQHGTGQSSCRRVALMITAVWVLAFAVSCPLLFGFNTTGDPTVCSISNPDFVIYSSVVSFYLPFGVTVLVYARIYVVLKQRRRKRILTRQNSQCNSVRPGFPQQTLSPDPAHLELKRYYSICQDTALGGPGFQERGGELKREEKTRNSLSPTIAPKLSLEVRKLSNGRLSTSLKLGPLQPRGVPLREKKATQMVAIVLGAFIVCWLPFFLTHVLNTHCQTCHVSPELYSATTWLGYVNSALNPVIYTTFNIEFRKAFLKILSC
# Target: human D3 dopamine receptor (Homo sapiens (Human), UniProt P35462)
# Assay: Radioligand binding ([3H]-spiperone) to cloned human D3 receptor expressed in HEK-293 EBNA cells
# Conditions: membranes of transfected HEK-293 EBNA cells, 0.5 nM [3H]-spiperone, 1 h at RT
# Description: The ability of the compounds to bind to the 5-HT2A, D3 and D2 receptors was determined using radioligand binding to cloned receptors selectively expressed in HEK-293 EBNA cells.
# HEK-293 EBNA cells were transiently transfected with expression plasmids encoding for the human D2 or D3 dopamine- or for the human 5-HT2A serotonin receptor, respectively. The cells were harvested 48 h post-transfection, washed three times with cold PBS and stored at −80° C. prior to use. The pellet was suspended in cold 50 mM Tris-HCl buffer containing 10 mM EDTA (pH 7.4) and homogenized with a Polytron (Kinematica AG, Basel, Switzerland) for 20-30 sec at 12,000 rpm. After centrifugation at 48,000×g for 30 min at 4° C., the pellet was resuspended in cold 10 mM Tris-HCl buffer containing 0.1 mM EDTA (pH 7.4), homogenized, and centrifuged as above. This pellet was further resuspended in a smaller volume of ice cold 10 mM Tris-HCl buffer containing 0.1 mM EDTA (pH 7.4) and homogenized with a Polytron for 20-30 sec at 12,000 rpm. The protein content of this homogenate was determined with the Bio-Rad (Bradford) Protein Assay (Biorad Laboratories GmbH, München, Germany) according to the instructions of the manufacturer using gamma globulin as the standard. This homogenate was stored at −80° C. in aliquots and thawed immediately prior to use.
# Aliquots of membrane preparations were thawed at RT, resuspended in assay buffer (D2, D3: 50 mM Tris-HCl, 120 mM NaCl, 5 mM MgCl2, 1 mM EDTA, 5 mM KCl, 1.5 mM CaCl2, pH=7.4; 5-HT2A: 50 mM Tris-HCl, 10 mM MgCl2, 1 mM EGTA, pH=7.4), homogenized with a Polytron for 20-30 sec at 12,000 rpm and adjusted to a final concentration of approximately 7.5 μg protein/well (D2, D3) and 15 μg protein/well (5-HT2A), respectively.
# The binding affinity (Ki) of the compounds was determined using radioligand binding. Membranes were incubated in a total volume of 200 μl with a fixed concentration of radioligand (final concentration approximately 0.7 nM [^3H]-spiperone for D2, 0.5 nM [^3H]-spiperone for D3, and 1.1 nM [^3H]-ketanserin for 5-HT2A) and ten concentrations of test compound in ranging between 10 μM-0.1 nM for 1 h at RT. At the end of the incubation, the reaction mixtures were filtered on to unifilter 96-well white microplates with bonded GF/C filters (Packard BioScience, Zürich, Switzerland; preincubated for 1 h in 0.1% polyethylenimine (PEI) in assay buffer) with a Filtermate 196 harvester (Packard BioScience) and washed 3 times with cold assay buffer. The nonspecific binding was determined with equally composed reaction mixtures in the presence of 10 μM unlabelled spiperone. Per well 45 μl of Microscint 40 (Perkin Elmer, Schwerzenbach, Switzerland) was added, plates for sealed, shaken for 20 min and counted for 3 min on a Topcount Microplate Scintillation Counter (Canberra Packard SA, Zürich, Switzerland) with quenching correction.
# The CPM value for each duplicate of a concentration of competing compound was averaged (y1), then the % specific binding was calculated according to the equation (((y1−non-specific)/(total binding−non-specific))×100). Graphs were plotted with the % specific binding using XLfit, a curve fitting program that iteratively plots the data using Levenburg Marquardt algorithm. […] The affinity constant (Ki) was calculated using the Cheng-Prusoff equation Ki=(IC50/1+([L]/Kd), where [L] is the concentration of radioligand and Kd is the dissociation constant of the radioligand at the receptor as determined by the saturation isotherm.
row,SMILES,Ki [nM]
1,"O=C(N[C@H]1CC[C@H](CCN2CCC(c3noc4cc(F)ccc34)CC2)CC1)c1ccc(N2CCOCC2)cc1 [Example 4, N-trans-(4-{2-[4-(6-Fluoro-benzo[d]isoxazol-3-yl)-piperidin-1-yl]-ethyl}-cyclohexyl)-4-morpholin-4-yl-benzamide]",28.2
2,"O=C(N[C@H]1CC[C@H](CCN2CCC(c3noc4cc(F)ccc34)CC2)CC1)c1ccnc(N2CCOCC2)c1 [Example 12, N-trans (4-{2-[4-(6-Fluoro-benzo[d]isoxazol-3-yl)-piperidin-1-yl]-ethyl}-cyclohexyl)-2-morpholin-4-yl-isonicotinamide]",5.75
3,"O=C(N[C@H]1CC[C@H](CCN2CCC(c3noc4ccc(F)cc34)CC2)CC1)c1ccc2c(c1)OCO2 [Example 30, Benzo[1,3]dioxole-5-carboxylic acid trans (4-{2-[4-(5-fluoro-benzo[d]isoxazol-3-yl)-piperidin-1-yl]-ethyl}-cyclohexyl)-amide]",3.86
4,"O=C(C[C@@H]1CCCCO1)N[C@H]1CC[C@H](CCN2CCC(c3noc4cc(Cl)ccc34)CC2)CC1 [Example 34A, N-trans (4-{2-[4-(6-Chloro-benzo[d]isoxazol-3-yl)-piperidin-1-yl]-ethyl}-cyclohexyl)-2-(R)-tetrahydro-pyran-2-yl-acetamide]",10.7
5,"O=C(CC1CCCCO1)N[C@H]1CC[C@H](CCN2CCC(c3noc4cc(Cl)ccc34)CC2)CC1 (stereo partly drawn) [Example 34, N-trans (4-{2-[4-(6-Chloro-benzo[d]isoxazol-3-yl)-piperidin-1-yl]-ethyl}-cyclohexyl)-2-(tetrahydro-pyran-2-yl)-acetamide]",10.7
